Data taken from paper PMC10321576, “Cyclic peptides target the aromatic cage of a PHD-finger reader domain to modulate epigenetic protein function” (Chemical Science, 2023).

Amino acid sequences for entries named in this document (tags omitted). Residues count along the entry.
UniProt Q9UPP1, 37-483 limits assumed: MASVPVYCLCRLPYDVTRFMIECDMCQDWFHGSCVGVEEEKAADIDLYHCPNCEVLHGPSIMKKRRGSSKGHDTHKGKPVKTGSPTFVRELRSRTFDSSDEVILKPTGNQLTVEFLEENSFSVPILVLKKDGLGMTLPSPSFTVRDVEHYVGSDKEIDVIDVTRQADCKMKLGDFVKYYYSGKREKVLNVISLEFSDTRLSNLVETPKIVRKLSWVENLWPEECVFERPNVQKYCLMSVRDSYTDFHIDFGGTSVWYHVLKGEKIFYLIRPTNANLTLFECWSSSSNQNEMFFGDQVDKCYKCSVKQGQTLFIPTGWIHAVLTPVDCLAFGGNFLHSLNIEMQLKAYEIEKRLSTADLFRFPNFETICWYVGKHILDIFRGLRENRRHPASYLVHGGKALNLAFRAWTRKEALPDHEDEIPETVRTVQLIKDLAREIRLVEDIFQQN

Biological target: T1, KDM7B dual domain (Homo sapiens, UniProt Q9UPP1)
T1 construct: dual domain (PHD-JmjC) of KDM7B; His-tag (C); made in house
Test: MALDI-TOF-MS KDM7 activity assay (H3 peptide demethylation)
Assay type: biochemical
Conditions: KDM7B 0.4 μM, N = 2 experiments in technical triplicate
Source text: We tested the effect of OC9 on KDM7B demethylation of H3_1–21K4me3K9me2 and the less-efficient H3_1–21K9me2 substrate by MALDI-TOF MS based assay.[14,19] […] Inhibition by OC9 was further confirmed by an orthogonal AS activity assay[58] (Fig. S41 ^†). […] As KDM7B aromatic cage mutation results in the same phenotypic outcome as JmjC catalytic site inactivation (e.g. KDM7B demethylase-dependent melanoma metastasis[20]), our results emphasise the crucial role of PHD-fingers in regulating KDM7 demethylase activity and the need to explore PHD-finger viability as therapeutic targets.
Fig. 5 KDM7 PHD-finger inhibition by OC9 modulates dual domain JmjC activity. (a) (i–iii) OC9 inhibits demethylation of H3K9me2, with or without K4me3, by KDM7B (0.4 μM) on H3 peptide (2.5 μM). […] (b) (i–iii) OC9 enhances demethylation of H3K4me3K9me2 by KDM7A (0.55 μM) on H3 peptide (2.5 μM), and (iv) enhances KDM7A (0.5 μM) demethylation of calf histone extracts (50 μg). […] Inset MALDI-TOF-MS overlays are from respective highest OC9 concentration points compared to DMSO alone. KDM7 PHD-finger only proteins had no demethylase activity (Fig. S40 ^†). Calf histone H3K9me2 was quantitated relative to H4 band intensities at each time point, normalised to DMSO at t = 0. Full Western blots available in Fig. S42. ^† Relative rates (Krel min^−1) from a one-phase decay model, average from N = 3 independent experiments. […]

CN(C)NC(=O)CCC(=O)O [DAM, daminozide]
IC50 (KDM7B K4me3K9me2 pIC50^MS/M): 398 nM
IC50 (KDM7B K9me2 pIC50^MS/M): 251 nM
